Assay results as given in patent publication US20120135089A1, “E3 LIGASE INHIBITORS” (priority 2009, published 2012).

Sequences of proteins named here, by UniProt entry; tags and fusion partners are left off. A change or cut given only in a name is not applied to a line headed by its entry. Residues count along the entry.
UniProt Q00987, whole entry: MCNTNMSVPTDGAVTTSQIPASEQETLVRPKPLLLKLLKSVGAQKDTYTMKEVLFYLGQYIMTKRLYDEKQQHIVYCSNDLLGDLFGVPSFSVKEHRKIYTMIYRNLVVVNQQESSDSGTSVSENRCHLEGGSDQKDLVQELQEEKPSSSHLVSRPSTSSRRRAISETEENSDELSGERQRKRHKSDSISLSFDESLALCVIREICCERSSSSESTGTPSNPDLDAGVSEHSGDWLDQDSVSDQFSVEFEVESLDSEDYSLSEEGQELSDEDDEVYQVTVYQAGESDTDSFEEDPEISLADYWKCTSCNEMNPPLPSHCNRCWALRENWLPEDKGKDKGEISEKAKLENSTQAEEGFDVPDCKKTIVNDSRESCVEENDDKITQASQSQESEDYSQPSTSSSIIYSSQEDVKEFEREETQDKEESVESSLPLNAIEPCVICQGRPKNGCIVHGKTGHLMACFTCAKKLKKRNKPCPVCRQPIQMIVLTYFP
UniProt Q00987, whole entry C464A: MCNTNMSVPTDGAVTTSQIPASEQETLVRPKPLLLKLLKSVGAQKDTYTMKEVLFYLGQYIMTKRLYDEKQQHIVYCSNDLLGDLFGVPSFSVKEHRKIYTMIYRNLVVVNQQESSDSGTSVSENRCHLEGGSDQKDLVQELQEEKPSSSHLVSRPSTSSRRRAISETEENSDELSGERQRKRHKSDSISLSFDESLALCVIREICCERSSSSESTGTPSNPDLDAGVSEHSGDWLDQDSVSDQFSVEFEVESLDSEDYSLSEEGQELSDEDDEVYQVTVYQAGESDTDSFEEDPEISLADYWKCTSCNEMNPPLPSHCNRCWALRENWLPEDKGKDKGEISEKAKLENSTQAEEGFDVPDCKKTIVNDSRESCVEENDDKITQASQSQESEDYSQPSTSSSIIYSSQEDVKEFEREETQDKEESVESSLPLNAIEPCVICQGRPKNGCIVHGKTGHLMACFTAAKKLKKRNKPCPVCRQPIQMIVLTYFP
UniProt Q00987, 400-491 limits assumed: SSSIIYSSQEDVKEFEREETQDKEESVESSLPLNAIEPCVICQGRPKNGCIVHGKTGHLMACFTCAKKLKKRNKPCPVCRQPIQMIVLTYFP

Legend:
[1] = biological target: GST-Mdm2(400-491) (Homo sapiens, UniProt Q00987); assay: in vitro ubiquitination assay, Mdm2 RING domain; assay type: biochemical
Description: Radiolabeled in vitro ubiquitination assays were carried out in 30 μl reaction mixtures with ^32P-labeled ubiquitin. 500 ng GST-Mdm2 (residues 400-491) and GST-MdmX (residues 410-490) were used for the RING-RING reactions. The products of the reaction were resolved on a SDS-PAGE gel and visualized by autoradiography.
Referring now to FIGS. 27c and d, in vitro ubiquitination reactions with dilutions of MEL3 and MEL4 are shown. Briefly, 25 ng of E1, 25 ng of Ubch5C, 1 μg of ubiquitin, and 500 ng of GST-Mdm2(400-491) were incubated with or without the indicated compound for 1 hour at 37° C. in ubiquitination buffer. Samples were analyzed by Western blotting with anti-GST. PC indicates positive control and NC indicates negative controls without UbCH5C protein. In FIG. 27c, compounds were tested at 120 μg/ml, and in FIG. 27(d) the MEL4 was tested in a 2-fold dilution series, 100, 50, 25, 12.5, 6.25, and 3.125 μg/ml. Brackets indicate slower migrating species of the proteins are the ubiquitin-conjugated forms.

[2] = biological target: Mdm2(C464A)-luciferase fusion protein (Homo sapiens, UniProt Q00987, C464A); assay: counter screen in control Mdm2(C464A)-luciferase cell line; assay type: cell-based
Description: The Mdm2-luciferase cell line was seeded at 7,500 cells per well, in 384-well white plates (PerkinElmer, Waltham, Mass., Cat. No. 6007688), in 27 μl of media (DMEM with FBS and P/S). Assay plates with cells were incubated at 37° C. overnight to allow cells to adhere. After 24 hours, 2 μl from the ‘mother’ plate (4 mg/ml) was transferred to a ‘daughter plate’ containing 148 μl media in order to dilute the compound 1:75. Next, 3 μl from each well of the ‘daughter plates’ was added to triplicate assay plates for a final concentration of 5.33 μg/ml. Assay plates were incubated at 37° C. for 2 hours. Then the cells were lysed with the addition of 30 μl of luminescence buffer (PerkinElmer, Cat. No. 6016989), and the plates were incubated at room temperature for 30 minutes before being analyzed on a Victor3 Plate Reader (PerkinElmer) for luminescence. Compounds that caused an increase in luminescence greater than 30% were re-ordered for further analysis. […] This was determined by comparing the negative control, no treatment, to the positive control, 10 μM MG132. […]
The above experiments verified that the cell lines could function as a valid system to screen for Mdm2 E3 ligase inhibitors. […] All compounds were incubated with the Mdm2-luciferase cell line for 2 hours, after which relative luminescence was detected by the addition of a luminesence buffer. […]

[3] = tested on: 60 tumor cell lines; assay: NCl60 screen (NIH); assay type: cell-based
Description: (§1) MEL17 was also sent to the National Institutes of Health (NIH) for analysis in the NCl60 screen. This is a service provide by the NIH, that tests novel compounds for killing in 60 tumor cell lines. […] It was then tested in a hollow-fiber assay. 12 tumor cell lines were tested in two concentrations and at two sites, subcutaneous implants and intraperitoneal implants. A 50% or greater reduction in percent net growth in the treated samples compared to the vehicle control was considered a positive result, and given a score of 2. Out of a possible score of 96 (12 cell lines×2 concentrations×2 sites×a score of 2), MEL17 got a score of 4.

[4] = biological target: Mdm2-luciferase fusion protein (Homo sapiens, UniProt Q00987); assay: cell-based Mdm2 auto-ubiquitination luminescence assay, Mdm2-luciferase cell line; details: 384-well format
[5] = tested on: 12 tumor cell lines; assay: hollow-fiber assay; assay type: in vivo, mouse; details: out of a possible score of 96 (12 cell lines×2 concentrations×2 sites×a score of 2)
Description: as §1

[6] = preliminary in vivo mouse toxicity; details: all concentrations tested up to 400 mg/kg/dose
[7] = tested on: Mdm2 and p53 levels; assay: Western blot of Mdm2 and p53 protein levels in cell lines; assay type: cell-based, human; details: 6 hours
Description: Cells were plated in 384-well format and treated with MG132 (2 hours) or cycloheximide (30 minutes). Steadylite luminescence buffer (PerkinElmer) was added and the relative luminescence levels determined on a Victor3 Plate Reader. Each graph represents the median of 5 replicates normalized to a no treatment control, and one standard deviation is shown. The EC50 for MEL23 and MEL24 are 2.7 μg/ml and 3.0 μg/ml (7.5 μM and 9.2 μM) respectively. The graphs and EC50 values were determined using Graphpad PRISM®. […] U2OS, RKO, and HCT116 cells (p53 wild-type) were incubated with 5 μg/ml (14 μM) of MEL23, 5 μg/ml (15 μM) of MEL24, or 10 μM of MG132 for 6 hours. Cells were lysed and analyzed by Western blotting using anti-Mdm2, anti-p53, and anti-eIF4E antibodies. NT indicates a no treatment control. […] MCF7 cells (p53 wild-type) were incubated with 30 μg/ml (51 μM) etoposide alone or in combination with 50 μM AlIn or 5 μg/ml (14 μM) MEL23, or 5 μg/ml (15 μM) MEL24 for 16 hours. Cells were lysed and analyzed by Western blotting using anti-MDMX and anti-actin antibodies.
H1229 cells were transfected with Mdm2-Flag or remained untransfected. […] Cells were lysed and analyzed by Western blotting using anti-Mdm2 and anti-actin antibodies. […] Cells were lysed and analyzed by Western blotting using anti-Mdm2, anti-p53, and anti-actin antibodies. […] Cells were lysed and analyzed by Western blotting using anti-Mdm2, anti-p53, anti-phospho-Ser15 p53, and anti-eiF4E antibodies.
Cells were seeded and treated with the indicated compound(s). […] Protein content was quantified using a Biorad protein assay reagent (Bio-Rad Laboratories, Hercules, Calif., Cat. No. 500-0006). […]
Referring now to FIG. 27f, endogenous Mdm2 and p53 protein levels are increased with MEL3 but not MEL4 treatment as shown. […] Cells were lysed and analyzed by Western blotting using anti-Mdm2, anti-p53, and anti-actin antibodies. […]
Referring now to FIG. 28e, endogenous Mdm2 and p53 protein levels with MEL17 treatment are shown. […] Cells were lysed and analyzed by Western blotting using anti-Mdm2, anti-p53, and anti-actin antibodies. […]

[8] = tested on: Mdm2-ubiquitin conjugates; assay: cell-based Mdm2 ubiquitination assay (HA-ubiquitin immunoprecipitation); parameters: species or system human; details: Mdm2-luciferase cells, with 10 μM MG132
Description: To obtain the results shown in FIG. 4A, Mdm2-luciferase cells were transfected with ubiquitin-HA and treated 8 hours later with 10 μg/ml (28 μM) MEL23, 10 μg/ml (31 μM) MEL24, or a DMSO control. After 16 hours, cells were additionally treated with 10 μM MG132 or a DMSO control. After 3 hours, cells were lysed and immunoprecipitated for 3 hours with anti-HA affinity matrix. Total lysates and immunoprecipitated samples were analyzed by Western blotting using anti-Mdm2 antibody. NT indicates a no treatment control. […] After 8 hours, cells were treated with 10 μg/ml (28 μM) MEL23, 10 μg/ml (31 μM) MEL24, or a DMSO control. After 16 hours, cells were additionally treated with 10 μM MG132 or a DMSO control. After 3 hours cells were lysed and analyzed by Western blotting using anti-p53 antibody. […]
The Mdm2-luciferase cell line was transfected with HA-ubiquitin and pre-treated with 10 μg/ml MEL23 or MEL24, followed by 10 μM MG132. […] Cells lysates were immunoprecipitated with an anti-HA antibody and analyzed by Western blotting. […]
Briefly, Mdm2-luciferase cells were transfected with HA-ubiquitin. […] Input lysates and immunoprecipitated samples were analyzed by Western blotting using anti-Mdm2 antibody.
Referring now to FIG. 28d, as shown, MEL17 inhibits Mdm2 auto-ubiquitination in a cell-based assay. […] Input lysates and immunoprecipitated samples were analyzed by Western blotting using anti-Mdm2 antibody. […]

SMILES	ubiquitination of Mdm2 RING domain (homo-complex) [1]	luminescence of the control Mdm2(C464A)-luciferase cell line [2]	killing profile in 60 tumor cell lines [3]	luminescence of the Mdm2-luciferase cell line [4]	hollow-fiber assay score [5]	toxicity [6]	Mdm2 levels ([7]; RKO, U2OS, HCT116, 5 μg/ml)	p53 levels ([7]; RKO, U2OS, HCT116, 5 μg/ml)	Mdm2 ubiquitination in cells (Mdm2-ubiquitin conjugates) [8]	p53 levels in RKO and RKO-E6 cells ([7]; isogenic RKO and RKO-E6 (HPV-E6) cells)
CC1CCN(Cc2cc(Cl)c3cccnc3c2O)CC1	does not inhibit	without significantly affecting	unique and interesting killing profile	consistent activity in the cell-based assay	4	non-toxic	increased Mdm2 in U2OS but not RKO or HCT116	increased p53 levels in RK0 and U2OS but not HCT116 cells		
COc1cc(OC)c2c(=O)cc(-c3ccc(OC)c(-c4c(OC)cc(OC)c5c(=O)cc(-c6ccccc6)oc45)c3)oc2c1	not	without significantly affecting		consistent activity in the cell-based assay					did not inhibit	increases p53 levels in both RKO and RKO E6 cell lines
